Experimental data reported in patent US10420734B2, “Method of treating cancer using selective estrogen receptor modulators” (Duke University, priority 2014, dated 2019).

Protein sequences, listed by entry. Tags and fused reporters are not part of them.
UniProt P03372, whole entry: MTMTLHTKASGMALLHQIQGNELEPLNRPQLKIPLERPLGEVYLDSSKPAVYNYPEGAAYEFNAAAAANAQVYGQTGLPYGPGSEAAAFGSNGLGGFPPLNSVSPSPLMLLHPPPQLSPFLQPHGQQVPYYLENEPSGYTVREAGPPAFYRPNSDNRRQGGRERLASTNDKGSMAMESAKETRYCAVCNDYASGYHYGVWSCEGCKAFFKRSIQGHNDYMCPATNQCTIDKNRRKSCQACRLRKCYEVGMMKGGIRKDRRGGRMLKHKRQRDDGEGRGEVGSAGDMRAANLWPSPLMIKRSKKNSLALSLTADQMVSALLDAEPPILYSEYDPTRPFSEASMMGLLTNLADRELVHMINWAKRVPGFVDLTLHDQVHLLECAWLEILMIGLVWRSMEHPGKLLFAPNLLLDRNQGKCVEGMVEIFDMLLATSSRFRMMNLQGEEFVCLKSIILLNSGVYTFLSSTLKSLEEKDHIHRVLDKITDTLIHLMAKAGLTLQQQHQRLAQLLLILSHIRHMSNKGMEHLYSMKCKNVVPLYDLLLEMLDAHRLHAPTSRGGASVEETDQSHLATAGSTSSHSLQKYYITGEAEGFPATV

Target: ESR1 (Homo sapiens, UniProt P03372)
Assay: ESR1 expression in MCF7 cells (immunoblot, mRNA, MG132 pre-treatment)
Format: cell-based
Conditions: MG132 1 hour pre-treatment, 6 hours ligand
Experimental: Protein expression was analyzed as described (Wittmann et al., (2007) Cancer Res 67 (19):9549-9560) using antibodies purchased from Sigma-Aldrich—A5441 (β-actin) and Santa Cruz Biotechnology—sc-6259 (cytokeratin 18), sc-20680 (lamin A), sc-5546 (α-tubulin) and sc-8005 (ESR1).
For FIG. 6A, MCF7 cells were treated for 24 hours with ICI (10^−13-10^−7 M) or RAD1901 (RAD), (10^−11-10^−5 M). Expression of ESR1 and loading control cytokeratin 18 (CK18—FIG. 7A) in whole cell extracts were detected by immunoblot (top). ESR1 levels relative to CK18 were quantitated by densitometry using Adobe Photoshop (bottom). For FIG. 6B, MCF7 cells were plated as in FIG. 5B prior to 1 hour pre-treatment with vehicle or MG132 (10 μg/ml), followed by 6 hours of treatment with 10^−7 M vehicle, ICI, Ral or RAD1901 (RAD), (10^−8 or 10^−6 M). ESR1 expression was detected as in FIG. 6A. For FIGS. 6C-6D, LTED MCF7 cells were plated in phenol red free media supplemented with FBS that was stripped of growth factors twice using charcoal. For FIG. 6C, after 48 hours, cells were treated for 24 hours with E2 (10^−7 M) or SERDs (10^−6 M) and ESR1 was analyzed as in FIG. 6A. For FIG. 6D, LTED MCF7 cells were treated with ICI or RAD1901 (RAD), (10^−11-10^−6 M) on days 1, 4, and 6 of an 8 day proliferation assay and analyzed as in FIG. 5.

C[C@]12CC[C@@H]3c4ccc(O)cc4C[C@@H](CCCCCCCCC[S+]([O-])CCCC(F)(F)C(F)(F)F)[C@H]3[C@@H]1CC[C@@H]2O (stereo partly shown) [ICI, ICI 182,780, reference compound]
downregulation of ESR1 after pre-treatment with proteasome inhibitor MG132: completely blocked
